Measurements reported in BindingDB's records for doi:10.1007/s00210-001-0505-y (Institut De Recherches Servier, 2002).

The chains behind the UniProt entries cited, without tags or fusion partners. Where a name states a change or a piece, a line headed by the entry shows the natural chain unless it says otherwise.
UniProt P41595, whole entry: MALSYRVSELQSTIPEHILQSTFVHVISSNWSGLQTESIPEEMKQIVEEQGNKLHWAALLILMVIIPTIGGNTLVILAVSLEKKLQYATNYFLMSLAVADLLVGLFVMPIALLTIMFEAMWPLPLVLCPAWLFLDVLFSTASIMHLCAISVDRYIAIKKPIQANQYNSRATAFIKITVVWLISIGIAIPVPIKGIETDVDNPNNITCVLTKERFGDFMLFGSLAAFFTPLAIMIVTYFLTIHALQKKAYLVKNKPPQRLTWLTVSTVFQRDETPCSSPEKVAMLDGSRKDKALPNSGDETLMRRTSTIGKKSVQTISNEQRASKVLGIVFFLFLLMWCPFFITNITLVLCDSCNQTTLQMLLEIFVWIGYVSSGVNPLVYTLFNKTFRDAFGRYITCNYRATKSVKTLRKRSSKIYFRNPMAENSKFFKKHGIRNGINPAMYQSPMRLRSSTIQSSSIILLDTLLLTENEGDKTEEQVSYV
UniProt P28335: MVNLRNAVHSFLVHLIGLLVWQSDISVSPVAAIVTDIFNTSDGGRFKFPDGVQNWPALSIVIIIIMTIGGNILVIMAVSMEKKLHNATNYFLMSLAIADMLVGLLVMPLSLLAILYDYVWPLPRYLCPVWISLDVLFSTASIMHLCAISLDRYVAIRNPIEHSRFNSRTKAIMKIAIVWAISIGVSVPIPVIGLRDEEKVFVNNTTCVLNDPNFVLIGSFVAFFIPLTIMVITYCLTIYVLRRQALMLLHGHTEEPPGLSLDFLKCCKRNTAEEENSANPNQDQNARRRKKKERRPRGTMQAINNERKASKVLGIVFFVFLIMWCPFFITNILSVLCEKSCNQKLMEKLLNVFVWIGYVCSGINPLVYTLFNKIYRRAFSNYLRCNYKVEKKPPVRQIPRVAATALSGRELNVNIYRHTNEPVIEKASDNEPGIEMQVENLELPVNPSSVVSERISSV

Columns and labels:
[1] = target: 5-hydroxytryptamine receptor 2B (Homo sapiens, UniProt P41595)
[2] = target: 5-hydroxytryptamine receptor 2C (Homo sapiens, UniProt P28335)

Row | Structure (SMILES) | Ki [1] | Ki [2]
1 | CC(N)Cc1c[nH]c2ccc(OCc3cccs3)cc12 (stereo not drawn) [NSC_5311036] | 0.00316 µM | 
2 | Clc1cccc(N2CCNCC2)c1 [mCPP] | 0.012 µM | 0.0851 µM
